Assay [1] deals with T1, human plasma derived thrombin (Homo sapiens, UniProt P00734). Briefly: biochemical. As to conditions: SD; for IC50: IC50 (nM), thrombin 1.65 nM, S2238 100 µM, 50 mM Tris pH 7.4, 100 mM NaCl, 1 mg/ml BSA, room temperature, n = 3, ± S.D.
Assay [2] concerns the target T1, human plasma derived thrombin.

Ends that are not written are not given here.

The term IC50 denotes the concentration that inhibits the measured activity by half. The low end stands for inhibition by little substance, the high end for a need for much substance. A word on the Ki: it is the equilibrium dissociation constant of an inhibitor or competing ligand from its target. A low value points to higher affinity. By Km is commonly meant the concentration of substrate that gives half-maximal velocity.

In the case of `CC[C@H](C)[C@H](NC(=O)[C@H](C)NC(=O)[C@H](CCC(=O)O)NC(=O)[C@H](Cc1ccccc1)NC(=O)[C@H](CC(=O)O)NC(=O)[C@H](Cc1ccccc1)NC(=O)[C@@H]1CCCN1C(=O)[C@@H]1CCCN1C(=O)[C@H](C)NC(=O)[C@@H](NC(=O)[C@H](CCCCN)NC(=O)[C@H](Cc1c[nH]cn1)NC(=O)[C@H](CCSC)NC(=O)[C@H](CCCCN)NC(=O)[C@@H]1CCCN1C(=O)[C@H](CCC(=O)O)NC(=O)[C@H](C)NC(=O)[C@@H](NC(=O)[C@@H](N)CC(=O)O)C(C)C)[C@@H](C)O)C(=O)N1CCC[C@H]1C(=O)N[C@@H](CCC(=O)O)C(=O)N[C@@H](CCC(=O)O)C(=O)N[C@@H](Cc1ccc(OP(=O)(O)O)cc1)C(=O)N[C@@H](CC(C)C)C(=O)O` [DV24Y^phos], the results for the IC50 in assay [1] (pre-incubation 0 min) and in assay [1] (pre-incubation 20 min) were 8.67 ± 0.45 nM and 12.4 ± 1.2 nM, respectively. This compound also had a Ki in assay [1] of 0.327 ± 0.032 nM.

Regarding `CC[C@H](C)[C@H](NC(=O)[C@H](C)NC(=O)[C@H](CCC(=O)O)NC(=O)[C@H](Cc1ccccc1)NC(=O)[C@H](CC(=O)O)NC(=O)[C@H](Cc1ccccc1)NC(=O)[C@@H]1CCCN1C(=O)[C@@H]1CCCN1C(=O)[C@H](C)NC(=O)[C@@H](NC(=O)[C@H](CCCCN)NC(=O)[C@H](Cc1c[nH]cn1)NC(=O)[C@H](CCSC)NC(=O)[C@H](CCCCN)NC(=O)[C@@H]1CCCN1C(=O)[C@H](CCC(=O)O)NC(=O)[C@H](C)NC(=O)[C@@H](NC(=O)[C@@H](N)CC(=O)O)C(C)C)[C@@H](C)O)C(=O)N1CCC[C@H]1C(=O)N[C@@H](CCC(=O)O)C(=O)N[C@@H](CCC(=O)O)C(=O)N[C@@H](Cc1ccc(OS(=O)(=O)O)cc1)C(=O)N[C@@H](CC(C)C)C(=O)O` [DV24Y^sulf], the IC50 was 1.66 ± 0.18 nM in assay [1] (pre-incubation 0 min) and 2.02 ± 0.29 nM in assay [1] (pre-incubation 20 min). In assay [1], the Ki amounted to 0.056 ± 0.018 nM.

As for `CC[C@H](C)[C@H](NC(=O)[C@H](C)NC(=O)[C@H](CCC(=O)O)NC(=O)[C@H](Cc1ccccc1)NC(=O)[C@H](CC(=O)O)NC(=O)[C@H](Cc1ccccc1)NC(=O)[C@@H]1CCCN1C(=O)[C@@H]1CCCN1C(=O)[C@H](C)NC(=O)[C@@H](NC(=O)[C@H](CCCCN)NC(=O)[C@H](Cc1c[nH]cn1)NC(=O)[C@@H](N)CCSC)[C@@H](C)O)C(=O)N1CCC[C@H]1C(=O)N[C@@H](CCC(=O)O)C(=O)N[C@@H](CCC(=O)O)C(=O)N[C@@H](Cc1ccc(OS(=O)(=O)O)cc1)C(=O)N[C@@H](CC(C)C)C(=O)O` [MH18Y^sulf], the IC50 in assay [1] (pre-incubation 0 min) worked out at 1.26 ± 0.18 nM; in assay [1] (pre-incubation 20 min), 1.17 ± 0.14 nM. This compound also came in with a Ki in assay [1] of 1.25 ± 0.18 nM.

Take `NC(N)=NCCC[C@H](NC(=O)[C@@H]1CCCCN1C(=O)[C@H](N)Cc1ccccc1)C(=O)Nc1ccc([N+](=O)[O-])cc1` [S2238, H-D-Phe-pipecolyl-Arg-pNA•2HCl, reference compound]: in assay [2] (read-out: Michaelis-Menten constant (Km) of S2238 for thrombin, human plasma derived thrombin, 50 mM Tris pH 7.4, 100 mM NaCl, 1 mg/ml BSA, room temperature, 405 nm), the Km stood at 3.32 ± 0.35 µM.

Regarding DVAEPKMAKTAPPFDFEAIPEEYL [DV24H12A], the results for the IC50 in assay [1] (pre-incubation 0 min) and in assay [1] (pre-incubation 20 min) were 48.2 ± 12.4 nM and 141 ± 11 nM, respectively. Besides, the Ki in assay [1] is 3.23 ± 0.48 nM.

For the compound MAKTAPPFDFEAIPEEYL [MH18H12A], the “maximum inhibition of thrombin” value in assay [2] (saturates, highest concentration used 30 µM) was around 80%. In addition, the IC50 was 328 ± 23 nM in assay [1] (pre-incubation 0 min) and 343 ± 46 nM in assay [1] (pre-incubation 20 min). In assay [1], this compound showed a Ki of 329 ± 8 nM.

Source of the values: paper PMC3203879 (PLoS ONE, 2011).
